Results taken from ChEMBL document CHEMBL4033719, “2-Aminomethylthieno[3,2-d]pyrimidin-4(3H)-ones bearing 3-methylpyrazole hinge binding moiety: Highly potent, selective, and time-dependent inhibitors of Cdc7 kinase” (Bioorg Med Chem, 2017).

Columns and labels:
[1] = organism: Homo sapiens; experiment: Selectivity ratio of IC50 for full length human […]/human N-terminal GST-tagged CyclinE1 (1 to 410 residues) expressed in baculovirus expression system to IC50 for recombinant human full length Cdc7 (1 to 574 residues)/human N-terminal GST-tagged ASK (1 to 674 residues) expressed in baculovirus expression system
[2] = organism: Homo sapiens; experiment: Selectivity ratio of IC50 for recombinant human N-terminal GST-tagged ROCK1 catalytic domain (1 to 477 residues) expressed in baculovirus expression system to IC50 for recombinant human full length Cdc7 (1 to 574 residues)/human N-terminal GST-tagged ASK (1 to 674 residues) expressed in baculovirus expression system

Compound | Ratio IC50 [1] | Ratio IC50 [2]
O=c1[nH]c(CN2CCCC2)nc2cc(-c3ccncc3)sc12 | 830 | 15
O=c1[nH]c(CN2CCCC2)nc2cc(-c3cn[nH]c3)sc12 | 2200 | 180
Cc1n[nH]cc1-c1cc2nc(CN3CCCC3)[nH]c(=O)c2s1 | 14000 | 200
